# Data as given in paper PMC9304723 (Heliyon, 2022).
# Amino acid sequences for entries named in this document (tags omitted). A change or cut given only in a name is not applied to a line headed by its entry.
# UniProt P08183, whole entry: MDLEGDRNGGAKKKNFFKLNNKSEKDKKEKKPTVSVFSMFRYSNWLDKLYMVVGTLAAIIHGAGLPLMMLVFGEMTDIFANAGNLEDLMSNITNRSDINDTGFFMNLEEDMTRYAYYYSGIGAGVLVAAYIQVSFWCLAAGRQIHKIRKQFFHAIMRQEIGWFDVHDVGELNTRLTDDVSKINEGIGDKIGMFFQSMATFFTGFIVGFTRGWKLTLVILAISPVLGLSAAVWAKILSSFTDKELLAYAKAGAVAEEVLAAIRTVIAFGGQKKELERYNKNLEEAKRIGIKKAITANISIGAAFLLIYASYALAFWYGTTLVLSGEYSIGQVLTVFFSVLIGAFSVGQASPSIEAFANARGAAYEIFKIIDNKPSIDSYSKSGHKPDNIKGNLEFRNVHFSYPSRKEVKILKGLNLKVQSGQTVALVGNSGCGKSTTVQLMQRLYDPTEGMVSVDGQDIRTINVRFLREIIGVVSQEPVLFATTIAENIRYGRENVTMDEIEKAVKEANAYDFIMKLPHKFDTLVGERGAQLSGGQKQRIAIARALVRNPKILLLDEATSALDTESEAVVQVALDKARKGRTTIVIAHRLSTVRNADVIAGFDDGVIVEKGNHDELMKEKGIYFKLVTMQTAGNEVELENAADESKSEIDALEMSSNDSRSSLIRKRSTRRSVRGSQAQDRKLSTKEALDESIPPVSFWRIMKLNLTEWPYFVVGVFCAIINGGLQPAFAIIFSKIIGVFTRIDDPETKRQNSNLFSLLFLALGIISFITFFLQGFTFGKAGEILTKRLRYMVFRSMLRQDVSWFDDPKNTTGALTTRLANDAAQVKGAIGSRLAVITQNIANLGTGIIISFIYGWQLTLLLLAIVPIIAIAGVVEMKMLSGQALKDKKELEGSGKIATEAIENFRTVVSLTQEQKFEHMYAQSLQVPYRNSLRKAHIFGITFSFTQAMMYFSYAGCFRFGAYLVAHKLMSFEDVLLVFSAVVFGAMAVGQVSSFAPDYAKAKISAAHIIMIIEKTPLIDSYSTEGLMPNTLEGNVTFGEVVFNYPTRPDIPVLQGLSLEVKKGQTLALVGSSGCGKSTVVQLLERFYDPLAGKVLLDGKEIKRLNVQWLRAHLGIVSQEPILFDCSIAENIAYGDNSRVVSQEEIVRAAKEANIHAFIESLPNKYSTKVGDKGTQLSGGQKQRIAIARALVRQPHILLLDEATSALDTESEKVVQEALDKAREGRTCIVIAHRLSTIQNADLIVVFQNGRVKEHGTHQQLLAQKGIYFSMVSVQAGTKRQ
# UniProt O94956: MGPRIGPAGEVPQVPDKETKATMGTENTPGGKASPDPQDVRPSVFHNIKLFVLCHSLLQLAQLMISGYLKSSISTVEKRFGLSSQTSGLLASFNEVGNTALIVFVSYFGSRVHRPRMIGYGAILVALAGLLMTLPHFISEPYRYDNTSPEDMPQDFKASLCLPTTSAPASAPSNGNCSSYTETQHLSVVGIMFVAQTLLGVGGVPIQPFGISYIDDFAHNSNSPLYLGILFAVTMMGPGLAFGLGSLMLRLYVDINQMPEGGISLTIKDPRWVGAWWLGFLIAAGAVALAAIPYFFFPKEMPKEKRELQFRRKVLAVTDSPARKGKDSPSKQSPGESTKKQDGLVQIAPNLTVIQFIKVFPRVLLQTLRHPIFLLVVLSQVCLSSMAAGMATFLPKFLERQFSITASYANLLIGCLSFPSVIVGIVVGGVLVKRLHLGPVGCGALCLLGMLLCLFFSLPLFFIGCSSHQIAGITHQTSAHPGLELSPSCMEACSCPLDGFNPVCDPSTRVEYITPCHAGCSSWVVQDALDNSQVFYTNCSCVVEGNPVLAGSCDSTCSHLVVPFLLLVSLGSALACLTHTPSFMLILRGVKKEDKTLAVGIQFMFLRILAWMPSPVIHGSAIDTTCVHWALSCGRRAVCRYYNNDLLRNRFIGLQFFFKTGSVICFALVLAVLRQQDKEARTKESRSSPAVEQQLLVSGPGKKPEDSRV
# Key:
# [1] = rats; cited from earlier work
# P-glycoprotein (Pgp) = P-glycoprotein (Pgp) (Homo sapiens, UniProt P08183); assay: Caco-2 transport of CA with Pgp inhibitor GF120918; assay type: in vitro ADME
# [2] = Stability of CA in prepared plasma samples in the autosampler; assay type: physicochemical, rat; settings: prepared sample, 4 °C for 24 h in the autosampler
# Caco-2 cells = assay: Cell viability by MTT assay; assay type: cell-based; settings: 100–800 μM, 24 h exposure
# [3] = Pharmacokinetic study in rats after gavage administration; assay type: in vivo, Sprague–Dawley rats; settings: 20 mg/kg
# Caco-2 cell monolayers = assay: Caco-2 monolayer Transwell permeability of CA; assay type: in vitro ADME; settings: for Papp A to B / Papp BL to AP (B–A): over 180 min
# OATP2B1 = OATP2B1 (Homo sapiens, UniProt O94956); assay: Caco-2 transport of CA with OATP2B1 inhibitor baicalin; assay type: in vitro ADME
# [4] = 2 μM GF120918 in apical compartment
# [5] = CA 500 μM, 0.05% chitosan in HBSS pH 6.3 in apical compartment
# [6] = CA 500 μM, HBSS pH 6.3, without chitosan
# [7] = CA 500 μM, monolayer preincubated with 5 mM EDTA for 5 min
# [8] = range over the tested concentrations
substance,measurement,setting,value
Chicoric acid [CA],"Excretion of the prototype in urine, of the dosage",[1],15.3%
same,Increase of Papp A–B after GF120918 treatment,P-glycoprotein (Pgp); 2 μM GF120918,1.75 fold
same,Papp A–B after GF120918 treatment,P-glycoprotein (Pgp); [4],(1.8 ± 0.3) ×10 ^−7 cm/s
same,Papp B–A after GF120918 treatment,P-glycoprotein (Pgp); [4],(0.6 ± 0.2) × 10^−7 cm/s
same,Substrate of p-glycoprotein,"P-glycoprotein (Pgp); Caco-2, GF120918",essential substrate
same,Remaining,[2]; QC 100.0 ng/mL in rat plasma,102.0%
same,Remaining,[2]; QC 500.0 ng/mL in rat plasma,100.6%
same,Remaining,[2]; QC 2000.0 ng/mL in rat plasma,99.4%
same,Cell viability,Caco-2 cells,more than 90%
same,AUC0-t,[3],439.2 ± 123. μg·min/mL
same,AUC0-∞,[3],451.9 ± 136.6 µg·min/mL
same,CL/F,[3],35.7 ± 23.8 mL/min/kg
same,Cmax,[3],635.8 ± 128.3 ng/mL
same,Tmax,[3],5 h
same,"Vd,λz/F",[3],16.7941 ± 12.6385 L/kg
same,"t1/2,λz",[3],5.55 ± 1.44 h
same,Papp values at the three concentrations,"Caco-2 cell monolayers; 100, 200, 500 μM",below 1 × 10^−6 cm/s
same,Permeability with chitosan relative to pH 6.3 without chitosan,Caco-2 cell monolayers; A–B direction,approximately 3 fold
same,Efflux ratio Papp (B–A)/Papp (A–B),Caco-2 cell monolayers; CA 100 μM,1.2
same,Papp A to B,"Caco-2 cell monolayers; CA 100 μM, HBSS",(2.1 ± 0.5) ×10^−7 cm/s
same,Papp BL to AP (B–A),"Caco-2 cell monolayers; CA 100 μM, HBSS",(2.6 ± 0.3) ×10^−7 cm/s
same,Efflux ratio Papp (B–A)/Papp (A–B),Caco-2 cell monolayers; CA 200 μM,1.8
same,Papp A to B,"Caco-2 cell monolayers; CA 200 μM, HBSS",(8.2 ± 1.9) × 10^−8 cm/s
same,Papp BL to AP (B–A),"Caco-2 cell monolayers; CA 200 μM, HBSS",(1.5 ± 0.3) × 10^−7 cm/s
same,Efflux ratio Papp (B–A)/Papp (A–B),Caco-2 cell monolayers; CA 500 μM,1.5
same,Papp A–B with chitosan treatment,Caco-2 cell monolayers; [5],(2.1 ± 0.1) ×10 ^−7 cm/s
same,Papp B–A with chitosan treatment,Caco-2 cell monolayers; [5],(2.3 ± 0.3) ×10 ^−7 cm/s
same,Papp A–B at pH 6.3,Caco-2 cell monolayers; [6],(6.7 ± 1.2) ×10 ^−8 cm/s
same,Papp B–A at pH 6.3,Caco-2 cell monolayers; [6],(2.5 ± 0.3) ×10 ^−7 cm/s
same,Papp BL to AP (B–A),"Caco-2 cell monolayers; CA 500 μM, HBSS pH 7.4 (control)",(1.6 ± 0.1) × 10^−7 cm/s
same,Papp A–B with EDTA treatment,Caco-2 cell monolayers; [7],(4.5 ± 0.4) ×10 ^−6 cm/s
same,Papp B–A with EDTA treatment,Caco-2 cell monolayers; [7],(2.5 ± 0.2) ×10 ^−5 cm/s
same,Papp B–A relative to A–B at pH 6.3,Caco-2 cell monolayers; pH 6.3,approximately 3 fold
same,Efflux ratio with chitosan,"Caco-2 cell monolayers; pH 6.3 environment, chitosan",~1.0
same,Papp in the absorption direction,Caco-2 cell monolayers; [8],0.082 to 0.21 ×10⁻⁶ cm/s
same,Papp in the secretory direction,Caco-2 cell monolayers; [8],0.15 to 0.26 ×10⁻⁶ cm/s
same,Change of Papp A–B after baicalin treatment,OATP2B1; 6 μM baicalin,no significant change
same,Papp B–A after baicalin treatment,OATP2B1; 6 μM baicalin in apical compartment,(0.6 ± 0.1) × 10^−7 cm/s
same,Substrate of OATP2B1 transporter,"OATP2B1; Caco-2, baicalin",essential substrate
